Earlier results as cited in PMC7180456, “Multitarget Anticancer Agents Based on Histone Deacetylase and Protein Kinase CK2 Inhibitors” (Molecules, 2020).

Tested on: CK2
Details: Figure 1; read-out: IC50 of representative CK2 inhibitors; cited from earlier work

Q: Which IC50 does the source give for `CN(C)c1nc2c(Br)c(Br)c(Br)c(Br)c2[nH]1` [DMAT, 2-dimethylamino-4,5,6,7-tetrabromo-1H-benzimidazole] here?
A: 140 nM
